Columns and labels:
[1] = biological target: recombinant cardiac actin variant R312H (R312H-ACTC), as F-actin filaments (human); assay: TIRF microscopy of labelled tropomyosin binding along actin filaments; rhodamine phalloidin-labelled ACTC filaments held on bovine ventricular HMM (0.5 mg/ml) on a nitrocellulose-coated coverslip; Alexa-Tm added while recording at 10 frames per second; fluorescence along a filament normalised from 1 to 100 percent; elongation rate = slope of the binding curve from 0 to 15 s
[2] = biological target: recombinant cardiac actin variant R312C (R312C-ACTC), as F-actin filaments (human); assay: as above
[3] = biological target: recombinant cardiac actin variant R312H (R312H-ACTC), as F-actin filaments (human); assay: co-sedimentation; 7 uM F-actin with 0.1 to 2 uM tropomyosin in 100 mM KCl, 5 mM MgCl2, 20 mM Tris pH 8, 1 h at 25 C; 100,000 rpm 20 min (TLA100); Tm in the pellet by SDS-PAGE densitometry, normalised 0-100; fit to specific binding with Hill slope
[4] = biological target: recombinant cardiac actin variant R312C (R312C-ACTC), as F-actin filaments (human); assay: as above

With “Alexa488-labeled tropomyosin (bovine ventricular tropomyosin modified on Cys-190) (from UniProt Q5KR49 1-284) (natural protein)” as the substance, how does the Elongation Rate [1] read?
Its Elongation Rate is 3.4 s⁻¹.

And the Elongation Rate [2]?
Its Elongation Rate is 1.2 s⁻¹.

What does the source list for “tropomyosin purified from bovine ventricular ether powder (from UniProt Q5KR49 1-284)”?
Kd [3]: 0.555 µM; Kd [4]: 0.505 µM
